The values that follow come from publication PMC10503797, “Allosteric modulator potentiates β2AR agonist–promoted bronchoprotection in asthma models” (The Journal of Clinical Investigation, 2023).

Chains of the proteins cited; added tags and fusions are not shown.
UniProt Q8K4Z4, whole entry: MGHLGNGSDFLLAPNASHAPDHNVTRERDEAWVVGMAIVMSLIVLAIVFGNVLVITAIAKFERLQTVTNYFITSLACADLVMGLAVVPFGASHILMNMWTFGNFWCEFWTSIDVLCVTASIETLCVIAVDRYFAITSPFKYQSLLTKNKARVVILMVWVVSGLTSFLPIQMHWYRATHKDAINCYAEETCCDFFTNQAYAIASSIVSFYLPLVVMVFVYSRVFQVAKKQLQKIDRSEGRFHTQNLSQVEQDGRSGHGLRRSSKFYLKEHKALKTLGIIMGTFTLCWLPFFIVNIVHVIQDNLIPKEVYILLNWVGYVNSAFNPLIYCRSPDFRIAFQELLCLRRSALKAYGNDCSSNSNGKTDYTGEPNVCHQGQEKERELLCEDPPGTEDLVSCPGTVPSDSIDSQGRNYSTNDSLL

“And” between values parts separate entries of the source, which are not always exact repeats. Equal values may be shown once.

One data set addresses guinea pig β2AR (Cavia porcellus, UniProt Q8K4Z4). The experiment in a line: 125I-CYP radioligand competition binding, guinea pig β2AR. To be noted: DMSO; Log [Alb] (M) -4.49485.
A further data set deals with guinea pig lung slices. In words: Methacholine-induced airway constriction in guinea pig lung slices. The data set is classed as cell-based. The settings on record: Cavia porcellus, read-out: MCh Emax.
Data set [1] deals with lung slices obtained from ovalbumin-sensitized guinea pigs. In words: Ovalbumin-induced airway constriction in lung slices from ovalbumin-sensitized guinea pigs. To be noted: 0.1 μM fenoterol vs control. Format: cell-based, guinea pig.
In a further data set the test system is human lung slices. The experiment in a line: Methacholine-induced airway constriction in human lung slices. Format: cell-based. The settings on record: read-out: MCh Emax.

For the molecule `CC(C)(C)NCC(O)c1ccc(O)c(CO)c1` (stereo not shown) [Alb, albuterol, reference compound], the “125I-CYP binding, Alb competition curve (Figure 4E)” value at guinea pig β2AR is 5.934 and 7.068 and 8.638 and 6.455.
Turning to `CC(Cc1ccc(O)cc1)NCC(O)c1cc(O)cc(O)c1` (stereo not shown) [Fenoterol, fenoterol], in the data set on guinea pig lung slices, the Emax (in general, the size of the effect at its maximum, as opposed to the concentration needed) at 1 µM is 108 ± 1.9%; the Emax at 10 µM amounted to 107 ± 1%; the Emax at 100 µM stood at 102 ± 1.6%. In data set [1], the “Rightward-shift of ovalbumin-induced airway constrictions” value was found to be 190 fold. For the same molecule, in the data set with human lung slices, the Emax at 1 µM is 47.2 ± 5.2% and the Emax at 10 µM came out at 21.7 ± 2.8%.
